Measured values from US9072709B2 (The Regents of the University of California, priority 2009, dated 2015).

Key:
[1] = In vivo retention of [125I]-labeled rhBMP-2 in absorbable collagen sponge implants with or without BBP; set-up: species or system Sprague-Dawley rats; settings: ACS implant in rat abdominal musculature, vehicle or 0.5 mg BBP, mean ± S.E., n = 4
Procedure: Time to fusion was evaluated using plain radiographs. Fusion rate was determined by plain radiographs, manual palpation, and microcomputerized tomography (micro-CT). Histology was used to assess osseous characteristics of the fusion mass.
After approximately 10 minutes of incubation at room temperature the preparation was implanted by inserting it into a blind pouch created by gentle blunt dissection in the abdominal musculature. There were four samples for each treatment/time point (2 samples per rat and 2 rats per time point). The tracer retention was measured at 1, 3, and 7 days post-implantation by recovering the implants employing using a gamma-counter. Aliquots of the application fluids were counted at the time of implantation to determine total cpm at to. The percent of applied rhBMP-2 retained was calculated at each time point by dividing the explant-associated cpm with the cpm implanted at to.

Swiss-Weber mice = assay: Mouse hindquarter (muscle pouch) ectopic bone formation assay, BBP alone or with rhBMP-2; assay type: in vivo
Procedure: (§1) The osteogenic activity of material was tested using male Swiss-Weber mice aged 8 to 10 weeks were used (Taconic Farms, Germantown, N.Y.). […] The dried material was placed in a #5 gelatin capsule and sterilized by exposure to chloroform vapor. To conduct the assay, mice were anesthetized using 1% isoflurane delivered in oxygen at 2 l/min through a small animal anesthesia machine (VetEquip, Pleasanton, Calif.). Animals were affixed to a surgery board and the fur over the hindquarters shaved. The skin was cleaned with 70% ethanol and a midline incision made over the spine adjacent to the hindquarters. Blunt dissection with scissors was used to expose the quadriceps muscle on one side. A small pouch was made in the muscle using the point of scissors and the #5 capsule containing the test material was inserted into the pouch. The skin was then closed with three 11 mm Michel surgical clips and the animal returned to its cage for monitoring.
(§2) After 21 days the animals were killed and the hindquarter removed. Radiological examination of the specimens was accomplished using a small parts X-Ray cabinet (Faxitron, Wheeling, Ill.). For quantization of bone formation, bone area and the bone mineral content (BMC) of an area of interest encompassing the site of ectopic bone formation was determined using a PIXImus2 small animal densitometer (GE Lunar, Madison, Wis.). Specimens were then placed in buffered formalin and submitted for routine processing for histological examination.
Samples of 5 μg of rhBMP-2 were used in more extensive subsequent studies because that amount consistently produced an amount of ectopic bone that was neither too large nor too small for reliable analysis.

mice = assay: Hindquarter ectopic bone formation assay with human BBP plus rhBMP-2; assay type: in vivo; settings: 5 μg rhBMP-2 alone or plus 0.05 mg hBBP, 4 weeks, DEXA
Procedure: as §1
as §2, with “Specimens were then placed in buffered formalin and submitted for routine processing for histological examination.” left out

[2] = BBP 0 μg, 5 μg of rhBMP-2, densitometry, 21 days, mean SE

**Q.** Which “Percent BMP-2 Retained, Day 3” value [1] does the source give for “rhBMP-2: recombinant human bone morphogenetic protein 2” here?
**A.** 31.9 ± 2.07%

**Q.** What about the “histological sections of mouse hind quarters” value (Swiss-Weber mice; 9 days after implantation, 5 μg of rhBMP-2 alone or plus 500 μg of BBP) of the same substance?
**A.** earlier stages of inflammation and mesodermal cell proliferation

**Q.** What about the “Bone Area” value (Swiss-Weber mice; [2]) of the same substance?
**A.** 0.089 ± 0.0336 cm^2

**Q.** What about the “Bone Mineral Content” value (Swiss-Weber mice; [2]) of the same substance?
**A.** 0.00189 ± 0.00084 g

**Q.** And the “Mean BMC content” value (mice)?
**A.** 0.00775 g
